The text below walks through data of ChEMBL document CHEMBL5316292, “Physachenolide C is a Potent, Selective BET Inhibitor” (J Med Chem, 2023).

Assay [1] can be described thus: Selectivity ratio of Kd for 6His-tagged BRD3-BD1 (unknown origin) to Kd for 6His-tagged BRD3-BD2 (unknown origin).
The nature of assay [2]: Selectivity ratio of IC50 for BRD4-BD1 (unknown origin) to IC50 for BRD3-BD2 (unknown origin).
Assay [3] can be described thus: Selectivity ratio of IC50 for BRD3-BD1 (unknown origin) to IC50 for BRD3-BD2 (unknown origin).
The nature of assay [4]: Selectivity ratio of IC50 for BRD4-BD1 (unknown origin) to IC50 for BRD4-BD2 (unknown origin).
The nature of assay [5]: Selectivity ratio of IC50 for BRD3-BD1 (unknown origin) to IC50 for BRD4-BD2 (unknown origin).

In the case of `CC(=O)OC[C@]12CC[C@H]3[C@@H](C[C@H]4O[C@]45CC=CC(=O)[C@]35C)[C@]1(O)CC[C@@]2(O)[C@@](C)(O)[C@H]1CC(C)=C(C)C(=O)O1`, the Selectivity ratio in assay [1] was 10.

Turning to `CC(=O)OC[C@]12CC[C@H]3[C@@H](C[C@H]4O[C@]45CCCC(=O)[C@]35C)[C@]1(O)CC[C@@]2(O)[C@@](C)(O)[C@H]1CC(C)=C(C)C(=O)O1`, the Selectivity ratio in assay [2], in assay [3], in assay [4] and in assay [5] was 30 throughout.

`CC(=O)OC[C@]12CC[C@H]3[C@@H](C[C@@H]4O[C@@]45CC=CC(=O)[C@]35C)[C@]1(O)CC[C@@]2(O)[C@@](C)(O)[C@H]1CC(C)=C(C)C(=O)O1`: the Selectivity ratio in assay [2], in assay [3], in assay [4] and in assay [5] was 30 in each case.

Take `CC(=O)OC[C@]12CC[C@H]3[C@@H](CC=C4CC=CC(=O)[C@@]43C)[C@]1(O)CC[C@@]2(O)[C@@](C)(O)[C@H]1CC(C)=C(C)C(=O)O1`: the Selectivity ratio in assay [2], in assay [3], in assay [4] and in assay [5] was 30 throughout.

Regarding `CC(=O)OC[C@]12CC[C@H]3[C@@H](C[C@H]4O[C@]45CC=CC(=O)[C@]35C)[C@]1(O)[C@@H](OC(C)=O)C[C@@]2(O)[C@@](C)(O)[C@H]1CC(C)=C(C)C(=O)O1`, the Selectivity ratio in assay [2], in assay [3], in assay [4] and in assay [5] was 30 in each case.
